The numbers were not newly measured in patent publication US20060217315A1, “Method of controlled ovarian hyperstimulation and pharmaceutical kit for use in such method” (priority 2001, published 2006), which cites them from elsewhere.

For this data set the following is noted: cited from earlier work.

Take “LH isolated from urine: luteinising hormone isolated from female urine”: the “in vivo half-life (t1/2)” value is 0.167 to 0.333 h.
For the substance “recLH: LH obtained from a recombinant cell line”, the “in vivo half-life (t1/2)” value was 12 to 13 h.
